{"source": "patent US4268685A", "about": "“Salicylamide esters and related pharmaceutical composition” (Neopharmed S.p.A., priority 1979, dated 1981)", "assay": "plasma content (bioavailability) after administration", "conditions": "after the administration"}
{"smiles": "CC(C)Cc1ccc(C(C)C(=O)O)cc1", "note": "(stereo not shown) [Ibuprofen, 2-(4-isobutyl-phenyl)-propionic acid]", "values": [{"measurement": "time at which bioavailability falls down", "result": 3, "unit": "h"}]}
